{"source": "patent US20210388040A1", "target": "ACTB (human) (UniProt P60709)", "assay": "HA-bait purification from HEK-293T nuclear extract, glycerol gradient fractions 13-14, mass spectrometry, peptide count"}
{"substance": "HA-DPF2 (from UniProt Q92785 1-391)", "values": [{"measurement": "Unique", "value": 8, "unit": "peptides"}]}
